Experimental data reported in patent US8575100B2, “Tc and Re labeled radioactive glycosylated octreotide derivatives” (Mallinckrodt LLC, priority 2001, dated 2013).

Columns and labels:
[1] = system: AR42J tumor bearing nude mice; assay: Biodistribution in AR42J tumor bearing nude mice; type: in vivo
Description: Biodistribution studies of the ^99mTc-labelled derivatives (30 and 120 min p.i.) were performed in AR42J-tumor bearing nude mice (n=3-4). Internalisation and externalisation experiments were carried out using the same cell line.
To establish tumor growth, subconfluent monolayer cells were treated with 1 mM EDTA, suspended, centrifuged and resuspended in RPMI 1640.
Nude mice (male and female, 6-8 weeks) were inoculated s.c. in the flank with 2.5-3×10^7 cells suspended in 100 μl of PBS (pH 7.4), were injected i.v. into the tail vein of nude mice bearing an AR42J tumor. The animals (n=3-4) were sacrificed 30 and 120 min p.i, and the organs of interest were dissected. The radioactivity was measured in weighted tissue samples using a gamma counter. Data are expressed in % iD/g tissue (mean±DS, n=3-4).

AR42J-cells (SSTR2) = assay: Internalization of radioligands in AR42J cells; conditions: 60 min incubation; ratio normalized to the reference [125I]TOC
Description: The cells were incubated with the radioligand for up to 120 min (n=3). At each time point the activity in the supernatant, the surface-bound and the internalized activity were determined and normalized to the values of TOC. Externalization and recycling was studied after an incubation time of 120 min over 2 h. Specificity of ligand binding was studied in a competition experiment with […] Sandostatin.
Internalisation and externalisation experiments were performed using the sst2 expressing rat pancreatic tumor cell line AR42J. Free, surface bound and internalised radioactivity were determined after 10, 30, 60, 90 and 120 min. of incubation with the radioligands at 37° C. In the externalisation experiments allowing ligand recycling, the fraction of radioactivity released into the supernatant during 10, 30, 60, 90 and 120 min as well as the radioactivity remaining in the cells were determined. We also measured the activity released during 5 subsequent incubations (10, 20 and 3×30 min) with intermediate changes of the medium (limited recycling).
Coupling of glucose (Gluc) and maltotriose (Mtr) to N^α-Lys of N^ε-(Boc-His(Boc))Lys^0-Tyr^3-Lys^5(Dde)-octreotide (protected K(H)TOC) and final deprotection yielded Gluc- and Mtr-K(H)TOC. ^99mTc-labeling was carried out using [^99mTc(H2O)3(CO)3]^+. […] Biodistribution was evaluated in nude mice bearing AR42J tumors at 0.5 and 2 h p.i (n=4). […]

Substance	blood levels ([1]; 2 h (120 min) p.i., n=4) [% ID/g]	tumor accumulation ([1]; 2 h (120 min) p.i., n=4) [% ID/g]	Tissue accumulation adrenals ([1]; 2 h p.i., n = 3-4) [% iD/g]	Tissue accumulation blood ([1]; 2 h p.i., n = 3-4) [% iD/g]	Tissue accumulation intestine ([1]; 2 h p.i., n = 3-4) [% iD/g]	Tissue accumulation kidney ([1]; 2 h p.i., n = 3-4) [% iD/g]	Tissue accumulation liver ([1]; 2 h p.i., n = 3-4) [% iD/g]	Tissue accumulation muscle ([1]; 2 h p.i., n = 3-4) [% iD/g]	Tissue accumulation pancreas ([1]; 2 h p.i., n = 3-4) [% iD/g]	Tissue accumulation stomach ([1]; 2 h p.i., n = 3-4) [% iD/g]	Tissue accumulation tumor ([1]; 2 h p.i., n = 3-4) [% iD/g]	T/kidney ([1]; tumor to kidney ratio, 2 h p.i.)	T/liver ([1]; tumor to liver ratio, 2 h p.i.)	surface availability (% surface-bound ligand/% free radioligand) (AR42J-cells (SSTR2))
Na-(1-deoxy-D-fructosyl)-Lys^0(Nε-His [^99mTc (H2O)(CO)3]+)-Tyr^3-octreotide [[^99mTc]Gluc-K^0(H)TOC]	1.5±0.2	12.2±1.0	6.47 ± 1.46	1.49 ± 0.18	2.83 ± 0.28	19.49 ± 2.22	15.89 ± 2.70	0.22 ± 0.04	6.43 ± 2.09	11.28 ± 2.74	12.21 ± 0.96	0.63	0.77	204 ± 54
[^125I]Tyr^3-octreotide [[^125I]TOC, reference compound]	–	–	–	–	–	–	–	–	–	–	–	–	–	100
